How the values were obtained:
[1] = Ibuprofen vehicle screening (single excipients); format: physicochemical
Description: Initially, ibuprofen United States Pharmacopeia grade (USP) powder was mixed at room temperature with individual excipients being considered as shown in Table 1. Ibuprofen was incrementally added and mixed until a precipitate was observed. […] Observations were made daily to determine if the mixture would remain a solution or precipitate out within an approximately 24 hour period.

[2] = Screening for ibuprofen solubility in different vehicles (steps T1-T3); conditions: for Observation: amount in cell beside
From the text: Different solvent systems such as oils and medium chain triglycerides, solubilizing agents, emulsifying agents (self-emulsifying) and surfactants for the liquid filled capsules were screened for their effectiveness in solubilizing ibuprofen and are listed in Tables 5 to 6.
The screening method involved the following steps:
2. Step T2: the sample was heated using a hot plate and stirrer to facilitate ibuprofen solubility in the vehicle and the samples were left overnight.
3. […] Additional ibuprofen was added by reheating selected T2 solutions until re-crystallization or precipitation was observed.
Observations on whether ibuprofen appeared as dissolved, a suspension (fine suspension) or crystallized (agglomerates) were reported.

[3] = Ibuprofen lysinate vehicle screening

Row | Substance | Approx. Percentage of API that Resulted in Precipitate ([1]; ibuprofen USP in the excipient named, precipitate within approx. 24 h after cooling to room temperature, * = close to saturation point, only a few crystals) | Approx. Max. Percentage of API in Solution Tested ([1]; ibuprofen USP in the single excipient named, melted in on hot plate, remained in solution approx. 24 h) | Observation ([2]; step T1: ibuprofen in 10.0 g vehicle, mixed at room temperature) | Amt of API added ([2]; step T1: ibuprofen into 10.0 g vehicle at room temperature, outcome in Observation cell beside) | Amt of API added ([2]; step T2: heated on hot plate with stirring, left overnight, 10.0 g vehicle, outcome in cell beside) | Observation ([2]; step T2: heated on hot plate with stirring, left overnight) | Amt of API added ([2]; step T3: additional ibuprofen with heating, observed approx. 24 hours, 10.0 g vehicle, outcome in cell beside) | Observation ([2]; step T3: additional ibuprofen with heating, observed approx. 24 hours) | Approximate Percentage of IBL salt added in powder form to excipient and heated ([3]; ibuprofen lysinate (IBL) in the excipient named, outcome in Comments cell beside) | Solubility of ibuprofen lysinate in various vehicles ([3]; mainly anhydrous systems)
1 | Hexylene Glycol | 50% | 31% | Dissolved (T1) | 4250.0 mg | 5250.0 mg | Dissolved (T2) | 10000.0 mg | Crystallized (T3) | 2.4% | 
2 | Ibuprofen lysinate [reference compound] |  |  |  |  |  |  |  |  |  | Limited solubility
